Earlier results as cited in publication PMC6402191 (Clinical and Translational Science, 2017).

Details: ref 22 (probenecid), 23 (ibuprofen); cited from earlier work

SMILES: CCCN(CCC)S(=O)(=O)c1ccc(C(=O)O)cc1 [Probenecid]
- ka (first-order absorption rate constant): 0.56 h^‐1
